Measurements: patent publication US7709613B2, “Rhenium-188 and rhenium-186 for treatment of tumors expressing a Na+/I− symporter” (priority 2002, dated 2010)

System: NIS-expressing xenografted mammary adenocarcinoma (NAFA cells)
Type: in vivo, nude mice
Conditions: 24 hr; liver
Description: Animal model. […] Since erbB-2 (Neu) is one of the better known human breast cancer oncogenes, a mammary tumor cell line (NAFA) induced by oncogenic Neu was used. The NAFA cell line derived from the MMTV-NeuT mouse was grown in DMEM with 10% fetal bovine serum and 1% penicillin-streptomycin. […] Female nude mice (Charles River Laboratories) 4-6 weeks old were injected SC with 10^6 NAFA cells into the left groin.
Biodistribution. […] In order to block mg-NIS in expressing organs and tumor, control animals were injected with the above mixture of isotopes combined with 2 mg NaClO4. […] The % ID/g for each organ was determined, and RIs (% ID/g in the tumor divided by the % ID/g in normal tissue) were calculated.

## [I-].[Na+] [^125I^−, sodium iodide]
  Tumor to normal organ ratio (RI): 6.25
